# Measured values reported in PubChem BioAssay AID493087 (The Scripps Research Institute Molecular Screening Center, 2011).
# Protein sequences, listed by entry. Tags and fused reporters are not part of them.
# UniProt P14735, whole entry: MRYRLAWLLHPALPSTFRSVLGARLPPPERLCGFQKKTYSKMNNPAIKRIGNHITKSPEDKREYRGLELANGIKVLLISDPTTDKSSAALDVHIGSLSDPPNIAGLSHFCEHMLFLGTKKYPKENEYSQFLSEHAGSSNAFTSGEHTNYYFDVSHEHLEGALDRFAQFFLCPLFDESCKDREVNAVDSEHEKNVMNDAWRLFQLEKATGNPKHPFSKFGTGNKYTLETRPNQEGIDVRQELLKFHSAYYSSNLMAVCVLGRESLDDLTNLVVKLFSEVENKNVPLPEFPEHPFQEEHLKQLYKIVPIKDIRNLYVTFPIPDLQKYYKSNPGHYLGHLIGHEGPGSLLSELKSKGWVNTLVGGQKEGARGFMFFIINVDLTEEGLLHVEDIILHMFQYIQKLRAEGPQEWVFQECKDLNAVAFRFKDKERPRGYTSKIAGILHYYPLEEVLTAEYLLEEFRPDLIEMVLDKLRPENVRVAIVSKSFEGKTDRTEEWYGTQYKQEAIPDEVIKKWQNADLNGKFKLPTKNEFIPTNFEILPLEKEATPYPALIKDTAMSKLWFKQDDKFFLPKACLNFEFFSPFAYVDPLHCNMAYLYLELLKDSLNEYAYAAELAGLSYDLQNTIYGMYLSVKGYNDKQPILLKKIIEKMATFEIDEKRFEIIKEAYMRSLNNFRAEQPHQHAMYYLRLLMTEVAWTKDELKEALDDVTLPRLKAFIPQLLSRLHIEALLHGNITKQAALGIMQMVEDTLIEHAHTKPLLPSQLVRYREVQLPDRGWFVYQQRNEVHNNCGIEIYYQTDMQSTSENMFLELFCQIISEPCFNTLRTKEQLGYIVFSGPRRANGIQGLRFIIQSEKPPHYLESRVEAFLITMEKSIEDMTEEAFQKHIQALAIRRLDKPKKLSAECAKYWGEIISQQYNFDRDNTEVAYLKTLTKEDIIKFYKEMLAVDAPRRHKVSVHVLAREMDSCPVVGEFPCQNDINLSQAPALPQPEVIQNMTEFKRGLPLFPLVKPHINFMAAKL
# This is a selection; strong and weak results do not stand in their true shares. Activity calls are given as the source filed them.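 How the source made its calls: active means activation above the mean of all tested compounds plus 3 SD, set per screening campaign (cut at about 17% in these data); inactive means the rest.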
# Target: Insulin-degrading enzyme (Homo sapiens) (UniProt P14735)
# Assay: human IDE activators in live cells, primary screen, fluorescence polarization, HEK cells, FAbeta-B substrate (AID 493087)
# Settings: FAbeta-B cleavage, at 5.96 µM, active compounds read high, 0% vehicle, 100% cell-free pure enzyme wells
row,SMILES,activation
1,CCCOc1ccc(C(=O)NCC2(N(C)C)CCCCC2)cc1OC,inactive: 4.43%
2,CN1CCC(Nc2cccc(F)c2)CC1,inactive: 1.73%
3,O=C(NCC1(N2CCCCC2)CCCCC1)c1cncc(Br)c1,inactive: 2.03%
4,COc1cc(OC)c(C(=O)NCC2(N(C)C)CCCCC2)cc1OC,inactive: 2.46%
5,O=C(NCC1(N2CCOCC2)CCCCC1)c1cc(F)c(F)cc1Cl,inactive: 3.99%
6,CC(C)c1ccc(NC2CCN(C(=O)OC(C)(C)C)CC2)cc1,inactive: 5.75%
7,COc1ccc(CN(CCCl)CCCl)cc1Cl,inactive: 4.54%
8,CN(C)c1cccc(C(=O)NCC2(N3CCCCC3)CCCCC2)c1,inactive: 3.36%
9,O=C(NCC1(N2CCOCC2)CCCCC1)c1cc(=O)[nH]c2ccccc12,inactive: -0.38%
10,COc1cc(C(=O)NCC2(N3CCCCC3)CCCCC2)ccc1OC(F)F,inactive: -5.69%
11,COc1ccc(NC2CCN(C(=O)OC(C)(C)C)CC2)cc1,inactive: -0.49%
12,CC(C)c1ccc(C(=O)NCC2(N3CCOCC3)CCCCC2)cc1,inactive: 5.5%
13,CN1CCN(CCOC(=O)C(O)(c2ccccc2)c2ccccc2)CC1,inactive: 3.41%
14,O=C(NCC1(N2CCCCC2)CCCCC1)c1cccc(C(F)(F)F)c1,inactive: 4.62%
15,CCN1CCC(Nc2ccc(Cl)cc2)CC1,inactive: 1.78%
16,N#CC1(Nc2ccccc2)CCN(CCc2ccccc2)CC1,inactive: -1.49%
17,O=C(NCC1(N2CCCCC2)CCCCC1)c1cccc([N+](=O)[O-])c1,inactive: -2.62%
18,CSc1ccc(C(=O)NCC2(N3CCOCC3)CCCCC2)cc1,inactive: 5.69%
19,O=C(NCC1(N2CCCCC2)CCCCC1)c1ccc(OC(F)F)cc1,inactive: 1.11%
20,CCOC(=O)N1CCC(Nc2cccc(C)c2)CC1,inactive: 0.91%
21,COc1cc(C(=O)NCC2(N(C)C)CCCCC2)ccc1OC(F)F,inactive: 4.68%
22,CCCCOc1ccc(C(=O)NCC2(N3CCOCC3)CCCCC2)cc1,inactive: 3.35%
23,O=P1(N(CCCl)CCCl)SCCCS1,inactive: -2.38%
24,O=C(NCC1(N2CCCCC2)CCCCC1)c1ccc(F)cc1,inactive: 5.8%
25,CCOC(=O)N1CCC(Nc2ccc(F)cc2)CC1,inactive: 1.66%
26,COc1ccc(NC2CCN(CCc3ccccc3)CC2)c(OC)c1,inactive: 11.3%
27,O=C1CCN(Cc2ccccc2)CC1,inactive: 2.67%
28,CCOc1ccc(C)cc1CN(CCCl)CCCl,inactive: -6.91%
29,O=C(NCC1(N2CCCCC2)CCCCC1)c1ccc(Cl)s1,inactive: 0.75%
